We go through one compound from patent US10532977B2, “Small molecule inhibitors of protein tyrosine phosphatases and uses thereof” (Indiana University Research and Technology Corporation, priority 2015, dated 2020).

The nature of the data set: Pharmacokinetics and bioavailability in guinea pigs, oral. Format: in vivo, guinea pig.

For the compound `Cc1c(Br)cc(NC(=O)CS(=O)(=O)O)cc1Br`, where the note is “Co-admin of L335M34 (50 mg/kg) and L01Z08 (20 mg/kg)”, the AUCALL stood at 52752.61 ng·h/mL. Further, the “time plasma concentration is 10-fold in excess of biochemical IC50” value (L335-M34 50 mg/kg, L01-Z08 20 mg/kg) is recorded as 12-14 hours.
